For 1 molecule, Activity results are on record in ChEMBL document CHEMBL5506018, “Discovery and Mechanistic Studies of Dual-Target Hits for Carbonic Anhydrase IX and VEGFR-2 as Potential Agents for Solid Tumors: X-ray, In Vitro, In Vivo, and In Silico Investigations of Coumarin-Based Thiazoles” (J Med Chem, 2024).

Protein sequences, listed by entry. Tags and fused reporters are not part of them. Lines headed by an entry give the natural chain unless they say otherwise; changes in a name come on top.
UniProt Q96GD4, whole entry: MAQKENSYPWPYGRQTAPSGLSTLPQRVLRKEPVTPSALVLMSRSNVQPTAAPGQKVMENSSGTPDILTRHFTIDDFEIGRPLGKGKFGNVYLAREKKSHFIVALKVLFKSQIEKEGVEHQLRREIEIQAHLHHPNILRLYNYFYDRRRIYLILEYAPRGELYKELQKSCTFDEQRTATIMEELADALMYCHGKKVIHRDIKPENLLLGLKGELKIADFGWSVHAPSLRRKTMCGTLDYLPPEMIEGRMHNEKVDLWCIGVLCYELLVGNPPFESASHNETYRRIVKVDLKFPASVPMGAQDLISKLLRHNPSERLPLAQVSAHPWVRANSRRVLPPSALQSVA
UniProt Q07820, whole entry: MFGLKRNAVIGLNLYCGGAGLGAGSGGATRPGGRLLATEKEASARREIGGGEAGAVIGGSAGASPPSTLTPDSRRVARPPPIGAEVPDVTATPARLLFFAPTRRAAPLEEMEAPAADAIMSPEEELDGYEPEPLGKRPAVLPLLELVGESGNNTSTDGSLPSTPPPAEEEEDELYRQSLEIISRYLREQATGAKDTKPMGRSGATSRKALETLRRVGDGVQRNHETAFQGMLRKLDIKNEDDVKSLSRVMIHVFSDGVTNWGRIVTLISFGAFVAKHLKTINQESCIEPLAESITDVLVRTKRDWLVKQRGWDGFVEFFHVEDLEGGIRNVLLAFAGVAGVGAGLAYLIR
UniProt Q06187: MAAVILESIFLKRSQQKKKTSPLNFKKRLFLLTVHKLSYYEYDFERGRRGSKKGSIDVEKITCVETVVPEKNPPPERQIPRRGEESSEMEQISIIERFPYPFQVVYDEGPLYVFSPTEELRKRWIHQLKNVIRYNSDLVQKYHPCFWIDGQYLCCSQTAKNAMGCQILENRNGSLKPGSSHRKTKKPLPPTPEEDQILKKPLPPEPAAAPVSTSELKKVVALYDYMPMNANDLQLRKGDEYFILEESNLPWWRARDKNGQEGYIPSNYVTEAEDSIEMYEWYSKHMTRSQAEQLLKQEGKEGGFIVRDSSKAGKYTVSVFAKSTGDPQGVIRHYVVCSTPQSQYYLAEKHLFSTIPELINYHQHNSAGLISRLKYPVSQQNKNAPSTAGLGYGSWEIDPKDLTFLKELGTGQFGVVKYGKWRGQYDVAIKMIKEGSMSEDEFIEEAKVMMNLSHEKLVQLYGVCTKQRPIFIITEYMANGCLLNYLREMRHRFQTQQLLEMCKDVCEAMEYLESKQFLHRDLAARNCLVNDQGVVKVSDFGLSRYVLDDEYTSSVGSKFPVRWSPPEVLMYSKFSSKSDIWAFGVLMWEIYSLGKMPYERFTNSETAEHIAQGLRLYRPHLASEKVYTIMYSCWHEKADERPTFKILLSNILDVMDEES
UniProt P36888, whole entry: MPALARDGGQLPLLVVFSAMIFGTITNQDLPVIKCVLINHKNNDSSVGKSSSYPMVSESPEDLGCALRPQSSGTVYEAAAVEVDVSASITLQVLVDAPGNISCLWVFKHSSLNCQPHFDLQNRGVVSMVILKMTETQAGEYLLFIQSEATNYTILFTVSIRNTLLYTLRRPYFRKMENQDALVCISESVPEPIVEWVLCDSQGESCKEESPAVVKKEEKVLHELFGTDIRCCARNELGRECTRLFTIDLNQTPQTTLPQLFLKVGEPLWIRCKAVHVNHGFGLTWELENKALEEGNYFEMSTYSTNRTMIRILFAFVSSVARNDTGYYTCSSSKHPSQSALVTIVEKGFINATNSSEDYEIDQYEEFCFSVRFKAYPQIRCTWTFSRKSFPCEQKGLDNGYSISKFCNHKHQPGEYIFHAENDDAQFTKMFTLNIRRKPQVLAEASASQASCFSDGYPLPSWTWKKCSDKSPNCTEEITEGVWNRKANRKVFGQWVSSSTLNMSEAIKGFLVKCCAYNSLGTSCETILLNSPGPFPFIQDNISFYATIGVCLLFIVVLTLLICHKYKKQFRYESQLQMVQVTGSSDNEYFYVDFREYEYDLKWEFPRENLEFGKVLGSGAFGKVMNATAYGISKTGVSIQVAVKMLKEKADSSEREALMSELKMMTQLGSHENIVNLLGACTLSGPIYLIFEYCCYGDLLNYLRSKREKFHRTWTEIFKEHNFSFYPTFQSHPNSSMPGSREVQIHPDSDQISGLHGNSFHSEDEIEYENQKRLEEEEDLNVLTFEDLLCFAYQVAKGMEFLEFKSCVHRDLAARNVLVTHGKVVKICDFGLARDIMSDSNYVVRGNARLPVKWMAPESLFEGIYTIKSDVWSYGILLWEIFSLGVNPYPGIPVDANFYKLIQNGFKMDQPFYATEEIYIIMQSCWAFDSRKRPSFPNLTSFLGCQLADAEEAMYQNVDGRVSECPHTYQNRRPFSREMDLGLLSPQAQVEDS
UniProt P07949, whole entry: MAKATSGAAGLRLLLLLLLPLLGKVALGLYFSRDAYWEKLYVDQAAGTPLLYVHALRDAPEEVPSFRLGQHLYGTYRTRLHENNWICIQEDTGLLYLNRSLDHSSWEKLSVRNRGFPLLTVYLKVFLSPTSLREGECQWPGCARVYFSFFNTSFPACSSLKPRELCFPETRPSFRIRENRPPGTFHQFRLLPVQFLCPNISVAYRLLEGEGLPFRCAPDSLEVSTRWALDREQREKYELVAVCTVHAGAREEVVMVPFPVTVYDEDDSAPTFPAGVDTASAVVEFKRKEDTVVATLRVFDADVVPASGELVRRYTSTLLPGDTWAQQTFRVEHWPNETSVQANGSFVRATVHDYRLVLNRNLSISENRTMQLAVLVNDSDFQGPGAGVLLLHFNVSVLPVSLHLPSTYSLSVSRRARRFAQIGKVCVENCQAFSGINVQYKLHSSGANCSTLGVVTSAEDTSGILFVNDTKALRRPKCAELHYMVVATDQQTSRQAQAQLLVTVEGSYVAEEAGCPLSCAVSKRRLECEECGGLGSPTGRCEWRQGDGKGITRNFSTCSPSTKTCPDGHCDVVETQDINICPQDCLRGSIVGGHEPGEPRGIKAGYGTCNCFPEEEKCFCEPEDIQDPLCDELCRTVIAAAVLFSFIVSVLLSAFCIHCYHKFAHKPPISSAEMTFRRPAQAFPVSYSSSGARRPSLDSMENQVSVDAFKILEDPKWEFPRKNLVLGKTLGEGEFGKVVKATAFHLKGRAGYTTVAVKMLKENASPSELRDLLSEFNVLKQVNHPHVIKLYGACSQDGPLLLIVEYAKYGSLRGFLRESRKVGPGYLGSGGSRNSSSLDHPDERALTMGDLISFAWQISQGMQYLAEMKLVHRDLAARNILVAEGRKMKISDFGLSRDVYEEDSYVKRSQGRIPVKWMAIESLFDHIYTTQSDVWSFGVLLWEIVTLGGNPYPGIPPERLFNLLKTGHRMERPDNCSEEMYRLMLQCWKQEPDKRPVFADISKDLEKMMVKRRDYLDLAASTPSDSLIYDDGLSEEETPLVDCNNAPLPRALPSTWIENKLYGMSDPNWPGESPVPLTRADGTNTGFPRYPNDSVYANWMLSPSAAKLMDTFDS
UniProt P09619, whole entry: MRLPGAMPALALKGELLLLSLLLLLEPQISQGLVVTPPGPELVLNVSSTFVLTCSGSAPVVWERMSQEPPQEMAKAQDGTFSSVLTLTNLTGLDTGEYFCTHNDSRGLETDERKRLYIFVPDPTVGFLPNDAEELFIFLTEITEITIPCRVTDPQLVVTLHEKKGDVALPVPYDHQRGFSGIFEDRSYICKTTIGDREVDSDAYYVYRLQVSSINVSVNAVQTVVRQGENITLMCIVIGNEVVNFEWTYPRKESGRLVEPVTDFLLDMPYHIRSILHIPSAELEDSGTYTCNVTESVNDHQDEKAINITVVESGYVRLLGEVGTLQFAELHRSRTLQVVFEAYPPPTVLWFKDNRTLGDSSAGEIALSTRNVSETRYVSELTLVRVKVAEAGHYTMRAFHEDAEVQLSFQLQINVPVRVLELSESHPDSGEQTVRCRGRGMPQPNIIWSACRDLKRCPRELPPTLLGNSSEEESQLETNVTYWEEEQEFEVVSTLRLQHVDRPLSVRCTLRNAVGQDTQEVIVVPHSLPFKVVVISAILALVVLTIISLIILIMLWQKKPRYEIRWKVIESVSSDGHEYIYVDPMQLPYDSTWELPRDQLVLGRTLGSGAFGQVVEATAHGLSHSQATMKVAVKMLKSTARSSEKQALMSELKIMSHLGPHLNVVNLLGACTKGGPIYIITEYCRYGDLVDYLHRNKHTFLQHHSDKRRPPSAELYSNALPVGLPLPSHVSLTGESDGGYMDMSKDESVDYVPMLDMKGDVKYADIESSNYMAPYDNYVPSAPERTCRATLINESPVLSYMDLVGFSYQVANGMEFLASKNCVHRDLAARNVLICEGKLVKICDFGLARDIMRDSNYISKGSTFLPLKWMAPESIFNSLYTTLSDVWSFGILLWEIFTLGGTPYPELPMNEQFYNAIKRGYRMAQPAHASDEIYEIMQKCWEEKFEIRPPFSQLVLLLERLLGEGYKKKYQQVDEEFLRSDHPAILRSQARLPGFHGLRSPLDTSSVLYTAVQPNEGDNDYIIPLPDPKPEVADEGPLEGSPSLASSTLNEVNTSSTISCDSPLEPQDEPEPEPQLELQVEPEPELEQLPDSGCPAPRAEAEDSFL
UniProt P49841: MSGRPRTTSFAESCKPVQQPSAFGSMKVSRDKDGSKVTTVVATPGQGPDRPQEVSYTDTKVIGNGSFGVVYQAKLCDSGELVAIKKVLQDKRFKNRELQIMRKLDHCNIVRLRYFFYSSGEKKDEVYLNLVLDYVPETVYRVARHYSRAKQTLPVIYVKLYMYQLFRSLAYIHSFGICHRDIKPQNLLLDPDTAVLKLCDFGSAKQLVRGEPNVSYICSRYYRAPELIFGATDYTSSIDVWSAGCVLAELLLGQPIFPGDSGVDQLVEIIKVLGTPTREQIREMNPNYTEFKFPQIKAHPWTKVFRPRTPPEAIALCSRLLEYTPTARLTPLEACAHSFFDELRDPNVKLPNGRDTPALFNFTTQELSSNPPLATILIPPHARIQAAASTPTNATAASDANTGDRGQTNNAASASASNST
UniProt P10721, whole entry: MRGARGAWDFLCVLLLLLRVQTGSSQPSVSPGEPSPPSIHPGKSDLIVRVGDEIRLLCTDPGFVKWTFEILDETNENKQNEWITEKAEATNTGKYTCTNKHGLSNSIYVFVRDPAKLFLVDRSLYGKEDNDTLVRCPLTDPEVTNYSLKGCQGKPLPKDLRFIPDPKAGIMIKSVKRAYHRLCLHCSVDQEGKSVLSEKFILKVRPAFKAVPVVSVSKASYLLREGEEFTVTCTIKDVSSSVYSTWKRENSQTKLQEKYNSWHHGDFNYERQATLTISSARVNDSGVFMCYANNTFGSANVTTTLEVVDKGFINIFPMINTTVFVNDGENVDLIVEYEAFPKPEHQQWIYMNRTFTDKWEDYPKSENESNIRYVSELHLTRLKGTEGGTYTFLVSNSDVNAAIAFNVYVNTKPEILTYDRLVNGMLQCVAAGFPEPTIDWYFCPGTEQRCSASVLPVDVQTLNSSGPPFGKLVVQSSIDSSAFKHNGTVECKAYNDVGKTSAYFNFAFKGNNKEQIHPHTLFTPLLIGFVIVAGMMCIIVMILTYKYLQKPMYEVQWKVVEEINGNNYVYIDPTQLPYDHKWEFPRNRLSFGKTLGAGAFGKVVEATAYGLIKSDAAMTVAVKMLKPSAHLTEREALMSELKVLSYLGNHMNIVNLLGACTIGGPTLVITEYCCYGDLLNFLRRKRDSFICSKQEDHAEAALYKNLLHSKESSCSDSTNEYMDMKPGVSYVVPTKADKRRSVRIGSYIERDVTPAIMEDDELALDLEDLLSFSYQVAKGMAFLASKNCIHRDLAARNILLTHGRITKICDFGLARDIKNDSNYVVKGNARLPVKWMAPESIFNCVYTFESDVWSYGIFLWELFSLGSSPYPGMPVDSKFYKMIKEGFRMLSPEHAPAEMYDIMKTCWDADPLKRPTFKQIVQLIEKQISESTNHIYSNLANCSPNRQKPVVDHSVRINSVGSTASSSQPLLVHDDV

The target of assay [1] is Aurora kinase B (Homo sapiens) (UniProt Q96GD4). Kind of assay: Inhibition of Aurora B (unknown origin) assessed as remaining activity at 10 uM relative to control.
The target in assay [2] is Induced myeloid leukemia cell differentiation protein Mcl-1 (Homo sapiens) (UniProt Q07820). Briefly: Inhibition of Mcl-1 (unknown origin) assessed as remaining activity at 10 uM relative to control.
Assay [3] addresses Tyrosine-protein kinase BTK (Homo sapiens) (UniProt Q06187). Briefly: Inhibition of BTK (unknown origin) assessed as remaining activity at 10 uM relative to control.
For assay [4], the target named is RAF proto-oncogene serine/threonine-protein kinase (Homo sapiens) (UniProt P04049). Briefly: Inhibition of RAF (unknown origin) assessed as remaining activity at 10 uM relative to control.
The target in assay [5] is Receptor-type tyrosine-protein kinase FLT3 (Homo sapiens) (UniProt P36888). Briefly: Inhibition of FLT-3 (unknown origin) assessed as remaining activity at 10 uM relative to control.
Assay [6] addresses T1, Tyrosine-protein kinase JAK3 (Homo sapiens) (UniProt P52333).
T1 sequence (whole entry): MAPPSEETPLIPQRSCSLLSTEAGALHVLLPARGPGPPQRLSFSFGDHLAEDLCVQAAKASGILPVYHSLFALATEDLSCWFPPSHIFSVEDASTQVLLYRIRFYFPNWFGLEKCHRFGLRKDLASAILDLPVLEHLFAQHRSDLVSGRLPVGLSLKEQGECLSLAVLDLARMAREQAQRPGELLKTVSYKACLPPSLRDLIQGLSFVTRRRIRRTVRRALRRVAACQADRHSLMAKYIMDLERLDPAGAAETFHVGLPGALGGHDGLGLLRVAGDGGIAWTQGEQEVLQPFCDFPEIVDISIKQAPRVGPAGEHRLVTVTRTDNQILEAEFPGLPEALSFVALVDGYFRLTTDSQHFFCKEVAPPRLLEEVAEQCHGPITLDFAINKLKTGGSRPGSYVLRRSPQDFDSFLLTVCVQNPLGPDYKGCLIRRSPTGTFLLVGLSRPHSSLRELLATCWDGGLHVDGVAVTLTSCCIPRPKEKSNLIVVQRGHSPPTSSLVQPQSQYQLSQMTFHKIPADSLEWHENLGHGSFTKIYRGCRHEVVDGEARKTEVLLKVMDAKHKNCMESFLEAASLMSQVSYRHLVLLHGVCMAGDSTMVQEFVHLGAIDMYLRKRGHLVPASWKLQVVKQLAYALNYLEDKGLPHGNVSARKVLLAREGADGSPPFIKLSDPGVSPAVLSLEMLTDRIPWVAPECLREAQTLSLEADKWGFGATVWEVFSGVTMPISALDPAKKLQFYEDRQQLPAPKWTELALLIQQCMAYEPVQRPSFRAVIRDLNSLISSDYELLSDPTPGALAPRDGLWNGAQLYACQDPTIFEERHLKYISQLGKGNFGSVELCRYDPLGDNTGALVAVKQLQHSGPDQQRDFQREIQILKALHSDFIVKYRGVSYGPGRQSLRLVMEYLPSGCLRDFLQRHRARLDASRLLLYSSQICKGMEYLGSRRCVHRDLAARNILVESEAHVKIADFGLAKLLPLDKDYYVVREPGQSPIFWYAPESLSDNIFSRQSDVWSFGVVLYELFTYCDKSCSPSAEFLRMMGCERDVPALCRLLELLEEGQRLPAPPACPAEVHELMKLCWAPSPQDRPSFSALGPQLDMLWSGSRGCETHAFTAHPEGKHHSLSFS
Briefly: Inhibition of JAK3 (unknown origin) assessed as remaining activity at 10 uM relative to control.

In assay [7] the target is Proto-oncogene tyrosine-protein kinase receptor Ret (Homo sapiens) (UniProt P07949). Briefly: Inhibition of RET (unknown origin) assessed as remaining activity at 10 uM relative to control.
Assay [8] has as its target Platelet-derived growth factor receptor beta (Homo sapiens) (UniProt P09619). Briefly: Inhibition of PDGFRbeta (unknown origin) assessed as remaining activity at 10 uM relative to control.
In assay [9] the target is Glycogen synthase kinase-3 beta (Homo sapiens) (UniProt P49841). Briefly: Inhibition of GSK3beta (unknown origin) assessed as remaining activity at 10 uM relative to control.
Assay [10] addresses Mast/stem cell growth factor receptor Kit (Homo sapiens) (UniProt P10721). Briefly: Inhibition of c-KIT (unknown origin) assessed as remaining activity at 10 uM relative to control.

`CCOc1cccc2cc(/C(C)=N/Nc3nc(-c4ccc(F)cc4)cs3)c(=O)oc12`: the Activity was 102% in assay [1]; 85% in assay [2]; 87% in [3]; 76% in assay [4]; 100% in [5]; 99% in assay [6]. The Activity came out at 97% in assay [7], 84% in [8], 93% in [9] and 95% in assay [10].
